Protein sequences, listed by entry. Tags and fused reporters are not part of them.
UniProt P33535, whole entry: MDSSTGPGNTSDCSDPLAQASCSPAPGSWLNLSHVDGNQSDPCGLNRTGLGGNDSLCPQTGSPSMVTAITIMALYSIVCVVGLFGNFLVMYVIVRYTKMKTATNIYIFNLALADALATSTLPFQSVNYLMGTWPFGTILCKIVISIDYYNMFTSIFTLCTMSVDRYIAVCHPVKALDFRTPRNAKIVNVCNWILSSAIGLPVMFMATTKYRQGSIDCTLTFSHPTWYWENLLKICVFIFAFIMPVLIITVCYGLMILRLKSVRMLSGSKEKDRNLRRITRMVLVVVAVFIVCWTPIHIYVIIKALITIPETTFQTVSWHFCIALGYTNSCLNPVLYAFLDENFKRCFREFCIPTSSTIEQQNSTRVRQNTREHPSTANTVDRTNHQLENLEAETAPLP
UniProt P41145, whole entry: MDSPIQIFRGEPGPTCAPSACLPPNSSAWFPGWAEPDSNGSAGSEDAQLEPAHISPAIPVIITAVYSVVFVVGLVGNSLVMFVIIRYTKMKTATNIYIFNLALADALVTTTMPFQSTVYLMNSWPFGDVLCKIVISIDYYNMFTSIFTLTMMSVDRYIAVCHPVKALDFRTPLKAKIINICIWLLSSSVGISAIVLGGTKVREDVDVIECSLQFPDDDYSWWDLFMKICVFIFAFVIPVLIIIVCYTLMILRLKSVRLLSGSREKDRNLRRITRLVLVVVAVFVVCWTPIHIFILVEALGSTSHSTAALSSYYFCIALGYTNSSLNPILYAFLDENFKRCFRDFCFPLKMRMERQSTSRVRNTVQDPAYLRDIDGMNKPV
UniProt P33533, whole entry: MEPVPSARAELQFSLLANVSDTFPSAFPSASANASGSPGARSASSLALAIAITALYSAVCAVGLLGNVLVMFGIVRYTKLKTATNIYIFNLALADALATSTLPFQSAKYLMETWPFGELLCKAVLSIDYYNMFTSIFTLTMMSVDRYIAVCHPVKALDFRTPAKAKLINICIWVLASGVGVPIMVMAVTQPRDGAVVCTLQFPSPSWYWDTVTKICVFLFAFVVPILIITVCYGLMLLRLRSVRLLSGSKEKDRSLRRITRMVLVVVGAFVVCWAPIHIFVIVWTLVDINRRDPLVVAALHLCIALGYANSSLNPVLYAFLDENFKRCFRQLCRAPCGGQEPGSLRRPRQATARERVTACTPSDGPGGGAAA

In patent US9480684B2, “Orvinol and thevinol derivatives useful in the treatment of anxiety or a compulsive disorder” (dated 2016):

Tests used:
[1] = molecular target: T1, rat MOR (C6 glioma cell membranes) (Rattus norvegicus (Rat), UniProt P33535); experiment: [35S]GTPγS binding assay, mu receptor; settings: single concentration (10 μM) versus the standard DAMGO
Description: (§1) C6 glioma cells stably expressing the rat MOR (C6μ) or DOR (C6δ) were grown in Dulbecco's modified eagle medium (DMEM) supplemented with 10% fetal bovine serum (FBS), 90 units/ml penicillin, 90 μg/ml streptomycin, and 0.5 mg/ml geneticin. Chinese hamster ovary cells stably expressing the human KOR (CHOκ) or human NOP receptor CHO-NOP were maintained similarly, except that DMEM-F12 medium was used. All cells were grown under 5% CO2 at 37° C.
(§2) Cells were washed three times with PBS and detached from plates using harvesting buffer (20 mM HEPES, pH 7.4, 150 mM NaCl, and 0.68 mM EDTA). After centrifugation at 200×g for 3 min, the cell pellet was resuspended in 50 mM Tris-HCl, pH 7.4 and homogenized with a Tissue Tearor (Biospec Products, Inc). The homogenate was pelleted at 20,000×g for 20 min at 4° C. and the pellet resuspended in 50 mM Tris-HCl, pH 7.4 and re-homogenized. The final pellet was resuspended in 50 mM Tris-HCl, pH 7.4 and frozen in aliquots at −80° C. Protein concentration was determined using the BCA protein assay.
(§3) As described previously (Traynor and Nahorski, 1995), membranes (20 μg) from cells expressing MOR, DOR, KOR or NOP receptors are incubated in 20 mM Tris-HCl, pH 7.4, 5 mM MgCl2, 100 mM NaCl, 2.2 mM dithiothreitol (prepared freshly), 30 μM GDP, 0.1 nM [^35S]GTPγS, with or without 10 μM of test compound or 10 μM standard (DAMGO, SNC80, U50488H or N/OFQ as appropriate) or H2O for 60 min at 25° C. Samples are filtered through GF/C glass-fiber filtermats mounted on a Brandel cell harvester and rinsed four times with ice-cold 50 mM Tris-HCl, pH 7.4 containing 5 mM MgCl2, and 100 mM NaCl. Filtermats are processed as described for ligand binding above.
(§4) In a measure of functional activity, selected compounds have been evaluated in the [^35S]GTPγS assay in the same cell lines used for the binding assays (Table 2). Assays were performed as previously described by Traynor and Nahorski.^21 Agonist efficacy at MOR. KOR and NOP receptors was determined at a single concentration (10 μM) in comparison to the standard selective agonists DAMGO (MOR), and U69593 (KOR) and nociceptin (NOP) and antagonist Ke values determined against these standard agonists. For example, both 22, R=Ph (Ke(MOR) 0.47 nM, Ke(KOR) 0.41 nM) and 7a, R=Ph (Ke(MOR) 0.47 nM, Ke(KOR) 0.27 nM) are antagonists at MOR and KOR and have partial agonist activity at NOP receptors (40% and 14% of nociceptin's efficacy). 30. R=Ph also has no efficacy at MOR and KOR and is a partial agonist (57% of nociceptin) at NOP receptors.

[2] = Anti-writhing assay (abdominal stretch assay); settings: in vivo
[3] = Warm water tail withdrawal assay; settings: 50° C., in vivo
Description: For all of the tail-withdrawal data a minimum of five mice is used in each group. Each mouse (is placed in a cylindrical restraint (Harvard Apparatus, South Natick, Mass., USA) with the tail fully exposed. Approximately one-third of the tail is immersed in water at 48° C. and latency to tail-withdrawal is measured (Janssen et al, 1963). The low temperature is to ensure that compounds with at delta or kappa agonism can be identified. Standards, test compounds or vehicle (usually sterile water) are be administered i.p. and tail-withdrawal latencies measured 25 min later. For antagonist studies compounds are administered 30 min before the first agonist dose. Baseline latencies vehicle injected mice) are typically 2-4 s. A cut-off latency of 20 s is used to prevent injury to the tail.

[4] = molecular target: T2, human KOR (CHO cell membranes) (Homo sapiens (Human), UniProt P41145); experiment: [35S]GTPγS binding assay, kappa receptor; settings: single concentration (10 μM) versus the standard U69,593
Description: as §1, §2, §3, §4

[5] = molecular target: rat DOR (C6 glioma cell membranes) (Rattus norvegicus (Rat), UniProt P33533); experiment: Ligand binding assay, [3H]diprenorphine, delta opioid receptor; settings: read-out: Binding affinity Ki, Delta, C6 glioma cells expressing rat receptor
Description: as §1
(§5) Cells were washed three times with PBS and detached from plates using harvesting buffer (20 mM HEPES, pH 7.4, 150 mM NaCl, and 0.68 mM EDTA). […] Protein concentration was determined using the BCA protein assay.
(§6) As Alt et al., 2002. […] Nonspecific binding is measured using 10 μM naloxone (MOR, DOR, KOR) or N/OFQ (NOP). […] Each filtermat in a heat-sealed bag, is counted in a Wallac 1450 MicroBeta Liquid Scintillation and Luminescence Counter. IC50 values for test compounds are determined from concentration effect curves and converted to Ki values using GraphPad Prism.
(§7) Binding affinities at MOPr, KO/Pr, DOPr and NOPr were measured using [^3H]diprenorphine (MOP, KOP, DOP) and [^3H]N/OFQ (NOP) binding to membranes derived from CHO cells transfected with human receptors (KOP and NOP receptors) and C6 glioma cells stably expressing rat receptors (MOP and DOP). […]

[6] = molecular target: T2, human KOR (CHO cell membranes); experiment: Ligand binding assay, [3H]diprenorphine, kappa opioid receptor; settings: read-out: Binding affinity Ki, Kappa, CHO cells transfected with human receptor
Description: as §1, §5, §6, §7

[7] = molecular target: T1, rat MOR (C6 glioma cell membranes); experiment: Ligand binding assay, [3H]diprenorphine, mu opioid receptor; settings: read-out: Binding affinity Ki, Mu, C6 glioma cells expressing rat receptor
Description: as §1, §5, §6, §7

Compound	Mu % stim [1] [%]	Opioid agonist activity in the anti-writhing assay [2]	Opioid agonist activity in the tail withdrawal assay [3]	also measured
CO[C@]12CC[C@@]3(C[C@]1(C)[C@H](O)c1cccc(C)c1)[C@H]1Cc4ccc(O)c5c4[C@@]3(CCN1CC1CC1)[C@H]2O5	9	–	–	–
CO[C@]12C=C[C@@]3(C[C@]1(C)[C@H](O)c1ccccc1)[C@H]1Cc4ccc(O)c5c4[C@@]3(CCN1CC1CC1)[C@H]2O5	4	no agonist activity	no agonist activity	–
CO[C@]12C=C[C@@]3(C[C@]1(C)[C@H](O)c1cccc(C)c1)[C@H]1Cc4ccc(O)c5c4[C@@]3(CCN1CC1CC1)[C@H]2O5	22	–	–	Kappa % stim [4]: 6%
CO[C@]12CC[C@@]3(C[C@]1(C)[C@H](O)c1ccccc1)[C@H]1Cc4ccc(O)c5c4[C@@]3(CCN1CC1CC1)[C@H]2O5	–	no agonist activity	no agonist activity	Kappa % stim ([4]; listed as 30, R = Ph): 0%; Kappa % stim ([4]; listed as 30. R=Ph): no efficacy; Mu % stim ([1]; listed as 30, R = Ph): 2%; Mu % stim ([1]; listed as 30. R=Ph): no efficacy
CO[C@]12C=C[C@@]3(C[C@]1(C)[C@@H](O)c1ccccc1)[C@H]1Cc4ccc(O)c5c4[C@@]3(CCN1CC1CC1)[C@H]2O5	–	–	–	Ki [5]: 1.08 nM; Ki [6]: 3.02 nM; Ki [7]: 0.6 nM
CO[C@]12CC[C@@]3(C[C@@H]1[C@](C)(O)c1ccccc1)[C@H]1Cc4ccc(O)c5c4[C@@]3(CCN1CC1CC1)[C@H]2O5	–	no agonist activity	no agonist activity	–
CO[C@]12CC[C@@]3(C[C@@H]1[C@@](C)(O)c1ccncc1)[C@H]1Cc4ccc(O)c5c4[C@@]3(CCN1CC1CC1)[C@H]2O5	1	–	–	Kappa % stim [4]: −17%
CO[C@]12CC[C@@]3(C[C@]1(C)[C@H](O)c1ccc(F)cc1)[C@H]1Cc4ccc(O)c5c4[C@@]3(CCN1CC1CC1)[C@H]2O5	17	–	–	–
